From US8614223B2, “Pyrimidine hydroxy amide compounds as protein deacetylase inhibitors and methods of use thereof” (Acetylon Pharmaceuticals, Inc., priority 2010, dated 2013) come the findings set out here.

Amino acid sequences for entries named in this document (tags omitted). A change or cut given only in a name is not applied to a line headed by its entry.
UniProt Q13547, whole entry: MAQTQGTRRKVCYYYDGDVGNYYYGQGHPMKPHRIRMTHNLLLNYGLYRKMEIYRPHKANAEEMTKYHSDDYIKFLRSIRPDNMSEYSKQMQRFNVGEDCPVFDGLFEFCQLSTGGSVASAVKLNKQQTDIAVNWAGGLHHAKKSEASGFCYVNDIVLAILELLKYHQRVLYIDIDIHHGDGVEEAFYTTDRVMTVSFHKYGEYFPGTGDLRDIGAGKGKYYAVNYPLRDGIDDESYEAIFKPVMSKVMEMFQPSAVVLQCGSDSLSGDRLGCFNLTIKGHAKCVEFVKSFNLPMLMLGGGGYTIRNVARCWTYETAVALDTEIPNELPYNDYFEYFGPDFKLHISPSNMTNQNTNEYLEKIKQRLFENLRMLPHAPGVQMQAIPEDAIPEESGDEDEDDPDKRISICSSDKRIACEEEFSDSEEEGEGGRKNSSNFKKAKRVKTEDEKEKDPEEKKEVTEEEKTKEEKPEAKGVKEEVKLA
UniProt O15379: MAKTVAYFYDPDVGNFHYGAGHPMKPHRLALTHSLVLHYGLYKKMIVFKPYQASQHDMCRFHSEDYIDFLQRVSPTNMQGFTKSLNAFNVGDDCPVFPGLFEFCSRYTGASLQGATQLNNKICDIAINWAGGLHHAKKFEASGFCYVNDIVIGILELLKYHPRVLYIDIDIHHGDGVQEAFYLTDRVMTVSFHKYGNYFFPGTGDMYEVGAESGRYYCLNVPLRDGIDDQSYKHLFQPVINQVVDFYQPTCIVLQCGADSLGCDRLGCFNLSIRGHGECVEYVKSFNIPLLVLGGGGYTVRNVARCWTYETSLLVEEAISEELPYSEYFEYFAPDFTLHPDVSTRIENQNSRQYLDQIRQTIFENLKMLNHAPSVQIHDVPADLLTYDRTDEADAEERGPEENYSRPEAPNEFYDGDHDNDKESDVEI
UniProt Q92769, whole entry: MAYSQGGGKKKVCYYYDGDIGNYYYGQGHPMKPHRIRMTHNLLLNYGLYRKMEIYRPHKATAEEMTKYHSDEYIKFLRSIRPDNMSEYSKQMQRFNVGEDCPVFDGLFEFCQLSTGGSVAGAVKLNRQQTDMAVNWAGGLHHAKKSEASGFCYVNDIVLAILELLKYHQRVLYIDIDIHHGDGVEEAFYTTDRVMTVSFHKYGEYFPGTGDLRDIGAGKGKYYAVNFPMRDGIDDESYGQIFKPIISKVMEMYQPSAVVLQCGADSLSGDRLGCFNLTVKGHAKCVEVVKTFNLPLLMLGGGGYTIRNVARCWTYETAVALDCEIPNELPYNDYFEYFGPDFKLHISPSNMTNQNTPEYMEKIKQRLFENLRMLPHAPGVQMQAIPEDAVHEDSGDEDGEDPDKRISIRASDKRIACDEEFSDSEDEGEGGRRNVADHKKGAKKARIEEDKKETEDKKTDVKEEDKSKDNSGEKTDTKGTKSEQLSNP

What is called IC50 is the midpoint of a concentration-inhibition curve.

One test addresses HDAC1 (Homo sapiens (Human), UniProt Q13547). In words: HDAC enzyme assay, HDAC1. The note with it: ratio HDAC1/HDAC6.
The target of the next test is HDAC3 (Homo sapiens (Human), UniProt O15379). In words: HDAC enzyme assay, HDAC3. The settings on record: ratio HDAC3/HDAC6.
In another test the target is HDAC2 (Homo sapiens (Human), UniProt Q92769). Kind of test: HDAC enzyme assay, HDAC2. The note with it: for HDAC2 fold over HDAC6 IC50 (selectivity for HDAC6): ratio HDAC2/HDAC6.

As for `O=C(NO)c1cnc(Nc2ccc(Cl)c(Cl)c2)nc1` [Compound 2], the “HDAC1 fold over HDAC6 IC50 (selectivity for HDAC6)” value on HDAC1 is “(53.1x)”. Moreover, on HDAC3, the “HDAC3 fold over HDAC6 IC50 (selectivity for HDAC6)” value is on record as “(60.4x)”. For the same molecule, the “HDAC2 fold over HDAC6 IC50 (selectivity for HDAC6)” value on HDAC2 is “(50x)”.
Turning to `O=C(NO)c1cnc(NC2(c3cccc(Cl)c3)CC2)nc1` [Compound 94], at HDAC2 (read-out: HDAC2 IC50), the IC50 was 32 nM.
For `O=C(NO)c1cnc(NC2(c3cccs3)CC2)nc1` [Compound 98], on HDAC1, the “HDAC1 fold over HDAC6 IC50 (selectivity for HDAC6)” value was “(39.9x)”. In addition, the “HDAC3 fold over HDAC6 IC50 (selectivity for HDAC6)” value at HDAC3 is recorded as “(115.2x)”. The “HDAC2 fold over HDAC6 IC50 (selectivity for HDAC6)” value at HDAC2 is “(64.8x)”.
